For one compound, IC50 results are on record in US4465692A (Nelson Research & Development Company, priority 1982, dated 1984).

Chains of the proteins cited; added tags and fusions are not shown.
UniProt P61169, whole entry: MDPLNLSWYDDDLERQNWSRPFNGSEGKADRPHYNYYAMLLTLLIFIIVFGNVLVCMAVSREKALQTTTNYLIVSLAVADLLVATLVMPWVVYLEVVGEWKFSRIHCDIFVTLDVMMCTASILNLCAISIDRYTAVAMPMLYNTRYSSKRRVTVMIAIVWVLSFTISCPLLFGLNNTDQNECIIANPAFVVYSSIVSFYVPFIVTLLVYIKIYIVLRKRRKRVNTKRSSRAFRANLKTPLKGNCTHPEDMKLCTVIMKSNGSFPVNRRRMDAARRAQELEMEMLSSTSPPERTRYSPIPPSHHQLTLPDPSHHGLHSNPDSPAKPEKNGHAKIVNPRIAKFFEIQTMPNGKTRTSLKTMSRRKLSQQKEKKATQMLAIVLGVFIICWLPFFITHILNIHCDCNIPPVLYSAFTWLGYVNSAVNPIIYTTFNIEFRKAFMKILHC

For one assay, the target named is dopamine receptor (Rattus norvegicus, UniProt P61169). Description: biochemical.
Another assay addresses D-2 receptor (Rattus norvegicus, UniProt P61169). The assay is described as follows: biochemical.

The structures appear in SMILES notation. pIC50: −log10 of the molar value.

For the compound `CCCN(CCc1ccccc1)C1CCc2c(O)cccc2C1` (centres unmarked) [PPHT, 2-(N-phenylethyl-N-propylamino)-5-hydroxytetralin], the pIC50 (in general, the IC50 on a negative log10 scale, so that one unit is a factor of ten) against dopamine receptor was 8.52; on D-2 receptor, 7.40.
